What was measured:
ALK+ NSCLC = settings: patients treated with crizotinib in clinical trials to date; cited from earlier work
H3122 xenografts = settings: crizotinib at its MTD (100 mg/kg), 5×/week

SMILES: C[C@@H](Oc1cc(-c2cnn(C3CCNCC3)c2)cnc1N)c1c(Cl)ccc(F)c1Cl [crizotinib, reference compound]
- median time to disease progression (ALK+ NSCLC): 10 months
- T/C value (H3122 xenografts): 39%
